Assay results taken from ChEMBL document CHEMBL4229329, “Design of Small-Molecule Active-Site Inhibitors of the S1A Family Proteases as Procoagulant and Anticoagulant Drugs” (J Med Chem, 2018).

Species on record: Homo sapiens
Assay: Selectivity ratio of IC50 for human thrombin to IC50 for human TF/F7a

Ratio IC50: > 100
Compound: CCS(=O)(=O)N[C@H](Cc1ccc(-c2ccccc2)cc1)C(=O)N[C@@H](CCC(N)=O)C(=O)NCc1ccc(C(=N)N)cc1
